Test results as given in ChEMBL document CHEMBL4033752, “Discovery of Potent and Selective Tricyclic Inhibitors of Bruton's Tyrosine Kinase with Improved Druglike Properties” (ACS Med Chem Lett, 2017).

Protein sequences, listed by entry. Tags and fused reporters are not part of them. Lines headed by an entry give the natural chain unless they say otherwise; changes in a name come on top.
UniProt Q06187: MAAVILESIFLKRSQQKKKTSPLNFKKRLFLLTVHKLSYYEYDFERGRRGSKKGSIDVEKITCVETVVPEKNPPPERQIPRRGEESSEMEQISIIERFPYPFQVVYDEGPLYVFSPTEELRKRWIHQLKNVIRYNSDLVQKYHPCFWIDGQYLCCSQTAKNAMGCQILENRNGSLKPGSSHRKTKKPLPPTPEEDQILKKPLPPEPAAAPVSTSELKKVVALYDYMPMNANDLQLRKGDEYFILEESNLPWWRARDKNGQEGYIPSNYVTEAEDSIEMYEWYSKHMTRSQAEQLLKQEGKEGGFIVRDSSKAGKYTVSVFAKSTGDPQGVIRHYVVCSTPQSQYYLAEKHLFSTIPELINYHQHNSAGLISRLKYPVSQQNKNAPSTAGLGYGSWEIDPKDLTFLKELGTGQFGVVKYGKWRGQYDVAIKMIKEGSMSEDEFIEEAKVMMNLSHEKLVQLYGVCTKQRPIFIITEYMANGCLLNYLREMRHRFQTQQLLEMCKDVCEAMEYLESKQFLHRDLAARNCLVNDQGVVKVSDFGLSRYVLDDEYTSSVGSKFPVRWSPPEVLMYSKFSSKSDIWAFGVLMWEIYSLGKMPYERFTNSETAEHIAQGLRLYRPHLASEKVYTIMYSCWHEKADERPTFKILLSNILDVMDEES

Biological target: Tyrosine-protein kinase BTK (Homo sapiens, UniProt Q06187)

Row | Compound | IC50 [µM]
1 | CN1CCN(c2ccc(Nc3cc(-c4cc(F)cc(N5CCn6c(cc7c6CCCC7)C5=O)c4CO)cn(C)c3=O)nc2)CC1 | 0.029
2 | Cn1cc(-c2cc(F)cc(N3CCn4c(cc5c4CCCC5)C3=O)c2CO)cc(Nc2ccc(N3CCN(C4COC4)CC3)cn2)c1=O | 0.035
